PubChem BioAssay AID624354 (Sanford-Burnham Center for Chemical Genomics, 2012)
Only a part is listed here, and it is no random draw. Activity calls are given as the source filed them.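 How the source made its calls: active means compounds causing at least 50% loss of cell viability in the single-dose screen, relative to plate controls; inactive means the rest.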

Assay: viability loss with TRAIL in NB7+C8 cells, primary screen, TRAIL sensitizer project, cell-based, ATPlite luminescence (AID 624354)
Conditions: at 10 µM, hits give high values

SMILES	inhibition (viability loss, TRAIL sensitization)
Nc1ccc(CCCCOc2ccccc2)cc1	inactive: 25.4%
COc1ccc(N)c([N+](=O)[O-])c1[N+](=O)[O-]	inactive: 20.5%
CN(C)C1(CNC(=O)c2ccc(Cl)c(S(N)(=O)=O)c2)CCCCC1	inactive: 13.7%
O=P(Nc1ccccn1)(c1ccc(Br)cc1)c1ccc(Br)cc1	inactive: 3.65%
O=P(Nc1nc2ccccc2s1)(c1ccccc1)c1ccccc1	inactive: -12.6%
C[C@H]1OP(=O)(Oc2ccccc2)[C@H](O)[C@H](O)[C@H]1N=[N+]=[N-] (stereo partly drawn)	inactive: 13.9%
O=[N+]([O-])c1ncn(CCn2cnc([N+](=O)[O-])n2)n1	inactive: -11.1%
CC(=O)NC(SC(=S)N(C)C)C(Cl)(Cl)Cl (stereo not drawn)	inactive: 24.3%
O=[N+]([O-])c1ccc(O)c(/C=N/Nc2ccc([N+](=O)[O-])cc2[N+](=O)[O-])c1	active: 52.3%
O=[As](O)(c1ccccc1)c1ccc(O)cc1	inactive: -9.68%
Nc1ccc([As](=O)(O)c2ccc([N+](=O)[O-])cc2)cc1	inactive: -6.46%
C(Cc1nn[nH]n1)Cc1nn[nH]n1	inactive: -6.24%
O=C(OC1CN2CCC1CC2)c1cccc(Cl)c1 (stereo not drawn)	inactive: 5.09%
O=P(Nc1nccs1)(c1ccccc1)c1ccccc1	inactive: -27%
CC(C)C(=O)NC(Sc1ccccc1)C(Cl)(Cl)Cl (stereo not drawn)	inactive: 7.37%
c1nnnn1CCn1cnnn1	inactive: -0.022%
O=P1(Nc2nc3ccc(Cl)cc3s2)COc2ccccc2O1 (stereo not drawn)	inactive: 1.41%
CCOc1ccc(C2=NCC(CBr)S2)cc1 (stereo not drawn)	inactive: -8.12%
CCc1cc(O)c([N+](=O)[O-])c(C)c1[N+](=O)[O-]	inactive: -6.97%
CC(C)(C)C(=O)NC(Sc1ccccc1)C(Cl)(Cl)Cl (stereo not drawn)	inactive: 12.7%
N#C/C(=C\c1ccc(N(CCBr)CCBr)cc1)C(N)=O	inactive: 7.2%
CC(=O)c1ccc(N2CC2c2ccncc2)cc1 (stereo not drawn)	inactive: -5.78%
COC(=O)C1(C)COP(=O)(NCc2ccccc2)OC1 (stereo not drawn)	inactive: -12.7%
Cc1ccccc1CN(C)C(=O)COC(=O)C(O)(c1ccccc1)c1ccccc1	inactive: -9.27%
C[C@@H]1C=CCP(=O)(Oc2ccccc2)O1 (stereo partly drawn)	inactive: -9.16%
C[C@H]1OP(=O)(Oc2ccccc2)C[C@@H]2O[C@@H]21 (stereo partly drawn)	inactive: -18%
CC(=O)Nc1ccc([As](=O)(O)O)c(O)c1	inactive: -1.35%
CC(=O)Nc1ccc(Oc2c([N+](=O)[O-])cc([N+](=O)[O-])cc2[N+](=O)[O-])cc1	inactive: -1.15%
